Holding throughout (assay): whole plant or invertebrate
For experiment [1], the system named is Nilaparvata lugens (brown rice planthopper). Particulars: in Oryza sativa, read-out: activity (mortality, growth regulation, effects on F1 generation).
Experiment [2] has as its system Myzus persicae (green peach aphid). The conditions noted are these: in Brassica oleracea, 144 h, read-out: activity against Myzus persicae (mortality).
The test system of experiment [3] is Aphis craccivora (cowpea aphid). The conditions noted are these: in Phaseolus vulgaris, 120 h, read-out: activity (mortality).
The test system of experiment [4] is Tetranychus urticae (two-spotted spider mite). Particulars: foliar, 192 h, read-out: activity (egg, larval and adult mortality).
Experiment [5] has as its system Thrips tabaci (onion thrips). The conditions noted are these: foliar, 144 h, read-out: activity (mortality).
Experiment [6] deals with Myzus persicae (green peach aphid). Particulars: 144 h, read-out: activity (mortality).
The test system is the same in experiment [7]. The conditions noted are these: soil, 168 h, read-out: activity (mortality).
For experiment [8] the test system is unchanged. Particulars: foliar, 144 h, read-out: activity (mortality).

Like-named read-outs stand apart in the source and are kept apart here. A value given as a limit tells only on which side of the number the result lay.

With `CON1CCN2C(=O)C(c3c(C)cc(C)cc3C)C(=O)N2CC1` [Compound P2.1, 3-Methoxy-8-(2,4,6-trimethyl-phenyl)-tetrahydro-pyrazolo[1,2-a][1,2,5]triazepine-7,9-dione], the mortality at 200 ppm in experiment [1] was > 80%; in experiment [2] it was ≥ 80%; in experiment [3], > 80%. Moreover, the mortality at 400 ppm in experiment [4], in experiment [5], in experiment [6] and in experiment [8] was > 80% in each case. Also, the mortality at 25 ppm in experiment [7] was > 80%.
In the case of `CCOC(=O)Oc1c(-c2c(C)cc(Cl)cc2Br)c(=O)n2n1CCN(OC)CC2` [Compound P1.12], the mortality at 200 ppm in experiment [2] is ≥ 80%. In addition, the mortality at 400 ppm in experiment [8] is > 80%.
Turning to `CCOC(=O)Oc1c(-c2c(C)cc(C)cc2CC)c(=O)n2n1CCN(OC)CC2` [Compound P1.14], the mortality at 200 ppm in experiment [2] is ≥ 80%. Besides, the mortality at 400 ppm in experiment [4], in experiment [6] and in experiment [8] was > 80% each time.
For the compound `CCOC(=O)Oc1c(-c2cc(-c3ccc(Cl)cc3)ccc2C)c(=O)n2n1CCN(OC)CC2` [Compound P1.7], the mortality at 400 ppm in experiment [4] and in experiment [8] was > 80% in each case.
`CCOC(=O)Oc1c(-c2c(C)cc(Br)cc2C)c(=O)n2n1CCN(OC)CC2` [Compound P1.10]: the mortality at 200 ppm in experiment [1] was > 80%; in experiment [2], ≥ 80%; in experiment [3], > 80%. Further, the mortality at 400 ppm in experiment [6] and in experiment [8] was > 80% throughout.
For the compound `CCOC(=O)Oc1c(-c2c(C)cc(Cl)cc2C)c(=O)n2n1CCN(OC)CC2` [Compound P1.3], the mortality at 200 ppm in experiment [1] was > 80%; in experiment [2], ≥ 80%. Further, the mortality at 400 ppm in experiment [4], in experiment [6] and in experiment [8] was > 80% each time.
`CON1CCN2C(=O)C(c3c(C)cc(Br)cc3C)C(=O)N2CC1` [Compound P2.9]: the mortality at 200 ppm in experiment [1] was > 80%. The mortality at 400 ppm in experiment [4] and in experiment [8] was > 80% throughout. Further, the mortality at 25 ppm in experiment [7] was > 80%.
For `CON1CCN2C(=O)C(c3c(C)cc(Cl)cc3Br)C(=O)N2CC1` [Compound P2.11], in experiment [2], the mortality at 200 ppm was ≥ 80%. In addition, the mortality at 400 ppm in experiment [6] and in experiment [8] was > 80% in each case.
Take `CCc1cc(C)cc(C)c1C1C(=O)N2CCN(OC)CCN2C1=O` [Compound P2.14, 8-(2-Ethyl-4,6-dimethyl-phenyl)-3-methoxy-tetrahydro-pyrazolo[1,2-a][1,2,5]triazepine-7,9-dione]: in experiment [2], the mortality at 200 ppm was ≥ 80%. Besides, the mortality at 400 ppm in experiment [4], in experiment [6] and in experiment [8] was > 80% in each case.
Turning to `CCOC(=O)Oc1c(-c2c(C)ccc(-c3ccc(F)cc3)c2C)c(=O)n2n1CCN(OC)CC2` [Compound P1.17], the mortality at 200 ppm in experiment [2] is ≥ 80%. The mortality at 400 ppm in experiment [5], in experiment [6] and in experiment [8] was > 80% each time.
As to `CCOC(=O)Oc1c(-c2c(C)cc(C)cc2Br)c(=O)n2n1CCN(OC)CC2` [Compound P1.15], the mortality at 200 ppm in experiment [2] was ≥ 80%. The mortality at 400 ppm in experiment [4], in experiment [6] and in experiment [8] was > 80% each time.
With `CCc1cc(C)cc(CC)c1-c1c(OC(=O)C(C)(C)C)n2n(c1=O)CCN(OC)CC2` [Compound P1.19], the mortality at 400 ppm in experiment [8] was > 80%.
As for `CCOC(=O)Oc1c(-c2cc(C)ccc2C)c(=O)n2n1CCN(OC)CC2` [Compound P1.4], the mortality at 200 ppm in experiment [2] was ≥ 80%. Further, the mortality at 400 ppm in experiment [4] was > 80%.
As for `CON1CCN2C(=O)C(c3c(C)ccc(-c4ccc(F)cc4)c3C)C(=O)N2CC1` [Compound P2.17], in experiment [2], the mortality at 200 ppm was ≥ 80%. Also, the mortality at 400 ppm in experiment [6] and in experiment [8] was > 80% each time.
For `C=Cc1cc(C)cc(C)c1C1C(=O)N2CCN(OC)CCN2C1=O` [Compound P2.13], the mortality at 400 ppm in experiment [8] is > 80%.
Turning to `CON1CCN2C(=O)C(c3c(C)cc(C)cc3Br)C(=O)N2CC1` [Compound P2.15], the mortality at 200 ppm in experiment [2] was ≥ 80%. The mortality at 400 ppm in experiment [4], in experiment [6] and in experiment [8] was > 80% throughout.
As to `CCOC(=O)Oc1c(-c2c(CC)cc(C)cc2CC)c(=O)n2n1CCN(OC)CC2` [Compound P1.18], the mortality at 400 ppm in experiment [4] and in experiment [6] was > 80% in each case.
With `CCOC(=O)Oc1c(-c2c(C)cc(Cl)cc2OC)c(=O)n2n1CCN(OC)CC2` [Compound P1.6], the mortality at 400 ppm in experiment [4], in experiment [6] and in experiment [8] was > 80% throughout.
Regarding `C=Cc1cc(C)cc(C)c1-c1c(OC(=O)OCC)n2n(c1=O)CCN(OC)CC2` [Compound P1.13], the mortality at 200 ppm in experiment [2] is ≥ 80%. Besides, the mortality at 400 ppm in experiment [8] is > 80%.
`C#Cc1cc(C)cc(C)c1C1C(=O)N2CCN(OC)CCN2C1=O` [Compound P2.5]: the mortality at 200 ppm in experiment [2] was ≥ 80%. The mortality at 400 ppm in experiment [6] and in experiment [8] was > 80% in each case.
Take `CON1CCN2C(=O)C(c3cc(C)ccc3C)C(=O)N2CC1` [Compound P2.4, 8-(2,5-Dimethyl-phenyl)-3-methoxy-tetrahydro-pyrazolo[1,2-a][1,2,5]triazepine-7,9-dione]: in experiment [6], the mortality at 400 ppm is > 80%.
As for `CCOC(=O)Oc1c(-c2c(Cl)cc(C)cc2Br)c(=O)n2n1CCN(OC)CC2` [Compound P1.11], in experiment [2], the mortality at 200 ppm is ≥ 80%. For the same compound, in experiment [6], the mortality at 400 ppm was > 80%.
In the case of `C#Cc1cc(C)c(-c2c(OC(=O)OCC)n3n(c2=O)CCN(OC)CC3)c(C)c1` [Compound P1.8], the mortality at 400 ppm in experiment [4] and in experiment [8] was > 80% throughout.
For `CCOC(=O)Oc1c(-c2c(C)cc(C)cc2C)c(=O)n2n1CCN(OC)CC2` [Compound P1.2, Carbonic acid ethyl ester 3-methoxy-9-oxo-8-(2,4,6-trimethyl-phenyl)-2,3,4,5-tetrahydro-1H,9H-pyrazolo[1,2-a][1,2,5]triazepin-7-yl ester], the mortality at 200 ppm in experiment [1] was > 80%; in experiment [2], ≥ 80%. Also, the mortality at 400 ppm in experiment [4], in experiment [5], in experiment [6] and in experiment [8] was > 80% throughout. The mortality at 25 ppm in experiment [7] was > 80%.
Turning to `CON1CCn2c(OC(=O)C(C)(C)C)c(-c3c(C)cc(C)cc3C)c(=O)n2CC1` [Compound P1.1, 2,2-Dimethyl-propionic acid 3-methoxy-9-oxo-8-(2,4,6-trimethyl-phenyl)-2,3,4,5-tetrahydro-1H,9H-pyrazolo[1,2-a][1,2,5]triazepin-7-yl ester], the mortality at 400 ppm in experiment [4], in experiment [5], in experiment [6] and in experiment [8] was > 80% each time.
In the case of `C#Cc1cc(C)c(C2C(=O)N3CCN(OC)CCN3C2=O)c(C)c1` [Compound P2.8], the mortality at 400 ppm in experiment [5] and in experiment [8] was > 80% throughout.
For `C#Cc1cc(C)cc(C)c1-c1c(OC(=O)OCC)n2n(c1=O)CCN(OC)CC2` [Compound P1.5], the mortality at 400 ppm in experiment [4], in experiment [6] and in experiment [8] was > 80% throughout.
Regarding `CON1CCN2C(=O)C(c3c(Cl)cc(C)cc3Br)C(=O)N2CC1` [Compound P2.10], the mortality at 200 ppm in experiment [2] is ≥ 80%. The mortality at 400 ppm in experiment [6] and in experiment [8] was > 80% throughout.
On to `CON1CCN2C(=O)C(c3c(C)cc(Cl)cc3C)C(=O)N2CC1` [Compound P2.2, 8-(4-Chloro-2,6-dimethyl-phenyl)-3-methoxy-tetrahydro-pyrazolo[1,2-a][1,2,5]triazepine-7,9-dione], for which the values for the mortality at 200 ppm in experiment [1] and in experiment [2] were > 80% and ≥ 80%, respectively. The mortality at 400 ppm in experiment [4], in experiment [6] and in experiment [8] was > 80% each time. The mortality at 25 ppm in experiment [7] was > 80%.
As to `CCOC(=O)Oc1c(-c2c(C)cc(C)cc2OC)c(=O)n2n1CCN(OC)CC2` [Compound P1.9], the mortality at 200 ppm in experiment [1] is > 80%; in experiment [2], ≥ 80%; in experiment [3] it was > 80%. Further, in experiment [7], the mortality at 25 ppm was > 80%. Also, the mortality at 400 ppm in experiment [8] is > 80%.
As for `COc1cc(C)cc(C)c1C1C(=O)N2CCN(OC)CCN2C1=O` [Compound P2.12], in experiment [2], the mortality at 200 ppm was ≥ 80%. Further, the mortality at 400 ppm in experiment [4] and in experiment [8] was > 80% in each case.
